This passage reports solubility in water results from US20070225252A1, “Ketogenic Saccharides” (priority 2004, published 2007).

The data set can be described thus: Water solubility of the isolated product. The data set is classed as physicochemical. Particulars: qualitative.
As to “sorbitol 3-hydroxybutyrate tri-ester [KTX 0313]”, the solubility in water entry was “water-soluble”.
The result for “fructose (R)-3-hydroxybutyrate ester [KTX 0311]” reads “water-soluble”; that for “arabinose (R)-3-hydroxybutyrate ester [KTX 0312]”, “water-soluble”.
